Laboratory results from ChEMBL document CHEMBL4834416, “The Discovery of Novel ACA Derivatives as Specific TRPM2 Inhibitors that Reduce Ischemic Injury Both In Vitro and In Vivo” (J Med Chem, 2021).

By UniProt entry, the sequences of proteins in these tests, tags left out.
UniProt O94759, whole entry: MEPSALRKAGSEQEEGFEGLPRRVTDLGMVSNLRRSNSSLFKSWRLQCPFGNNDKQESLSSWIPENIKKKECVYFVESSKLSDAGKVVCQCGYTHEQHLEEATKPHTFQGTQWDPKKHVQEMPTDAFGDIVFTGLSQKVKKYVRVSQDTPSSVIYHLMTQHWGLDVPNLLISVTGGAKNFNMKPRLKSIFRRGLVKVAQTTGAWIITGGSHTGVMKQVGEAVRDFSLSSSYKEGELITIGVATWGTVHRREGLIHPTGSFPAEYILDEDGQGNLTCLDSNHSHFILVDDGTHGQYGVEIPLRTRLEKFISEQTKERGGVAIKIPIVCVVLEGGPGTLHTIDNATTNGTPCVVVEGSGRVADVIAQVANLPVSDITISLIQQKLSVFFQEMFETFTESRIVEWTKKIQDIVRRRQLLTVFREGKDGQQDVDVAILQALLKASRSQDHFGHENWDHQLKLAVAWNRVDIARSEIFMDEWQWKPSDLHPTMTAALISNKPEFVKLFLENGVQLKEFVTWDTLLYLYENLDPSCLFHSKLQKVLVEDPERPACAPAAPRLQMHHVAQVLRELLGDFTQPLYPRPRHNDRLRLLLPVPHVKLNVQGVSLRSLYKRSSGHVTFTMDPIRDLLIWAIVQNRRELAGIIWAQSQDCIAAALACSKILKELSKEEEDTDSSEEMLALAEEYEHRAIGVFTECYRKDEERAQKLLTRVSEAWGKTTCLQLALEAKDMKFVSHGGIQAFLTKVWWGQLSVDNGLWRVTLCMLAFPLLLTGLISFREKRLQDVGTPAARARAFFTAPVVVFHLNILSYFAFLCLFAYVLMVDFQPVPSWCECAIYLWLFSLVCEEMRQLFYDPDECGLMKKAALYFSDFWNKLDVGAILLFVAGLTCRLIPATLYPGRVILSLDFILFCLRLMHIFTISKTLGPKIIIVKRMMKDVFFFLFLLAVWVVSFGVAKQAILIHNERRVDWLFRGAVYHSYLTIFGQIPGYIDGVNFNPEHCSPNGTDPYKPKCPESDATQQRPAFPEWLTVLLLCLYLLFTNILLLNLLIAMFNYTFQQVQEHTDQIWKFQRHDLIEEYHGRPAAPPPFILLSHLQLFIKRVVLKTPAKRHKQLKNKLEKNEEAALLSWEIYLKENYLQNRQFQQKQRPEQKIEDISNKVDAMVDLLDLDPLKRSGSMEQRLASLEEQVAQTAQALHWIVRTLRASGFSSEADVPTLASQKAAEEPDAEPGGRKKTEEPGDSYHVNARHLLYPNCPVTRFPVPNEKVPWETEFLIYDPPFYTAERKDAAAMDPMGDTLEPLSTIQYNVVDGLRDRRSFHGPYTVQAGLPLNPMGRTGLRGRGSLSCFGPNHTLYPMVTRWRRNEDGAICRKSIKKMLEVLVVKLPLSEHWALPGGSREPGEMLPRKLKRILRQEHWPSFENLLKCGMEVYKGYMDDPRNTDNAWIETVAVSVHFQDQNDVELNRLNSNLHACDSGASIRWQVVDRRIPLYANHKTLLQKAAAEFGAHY

Molecular target: Transient receptor potential cation channel subfamily M member 2 (Homo sapiens, UniProt O94759)
Assay: Inhibition of human TRPM2 expressed in HEK293T cells assessed as blocked of ADPR-activated current by whole cell patch clamp electrophysiology
Assay type: cell-based

SMILES: NCCOB(c1ccccc1)c1ccccc1
- IC50: 1200 nM
